Values quoted from earlier work, collected in US20240082360A1, “METHODS TO TREAT HEPATITIS DELTA VIRAL INFECTIONS” (Eiger Biopharmaceuticals, Inc., priority 2019, published 2024).

Test system: HDV
Conditions: 24 weeks after the end of treatment; assay LOD 120 copies/mL of serum; cited from earlier work

In the case of “peginterferon alfa-2a: peginterferon alfa-2a therapy used in the HIDIT-1 and -2 studies”, the “subjects who achieved undetectable HDV RNA” value is given as 23-31%.
